Assay results as given in PMC9705075, “In Vitro characterization of the endocrine disrupting effects of per- and poly-fluoroalkyl substances (PFASs) on the human androgen receptor” (Journal of hazardous materials, 2022).

System: intracellular AR protein in VCaP cells
Experiment: Immunoblotting of intracellular AR protein in VCaP cells
Assay type: cell-based, human
Conditions: 10% FBS, 1 μM enzalutamide, 48 h
Protocol: Cells were plated at a density of 2.0 × 10^6 cells/well in 6-well plates (CellStar, Monroe, NC) and incubated 24 h.
Values are expressed as the mean fold change ± S.E.M. from three independent experiments.

SMILES: CNC(=O)c1ccc(N2C(=S)N(c3ccc(C#N)c(C(F)(F)F)c3)C(=O)C2(C)C)cc1F [enzalutamide, Enzalutamide, reference compound]
- cellular AR levels, normal conditions: significantly lowered cellular AR levels
